Assay [1] deals with H2B (1–27) unmodified peptide (Homo sapiens). The experiment in a line: ITC. The conditions noted are these: domain or fragment.
The target of assay [2] is H4 (1–20) unmodified peptide (Homo sapiens). Put plainly: ITC. The settings on record: domain or fragment.

For the substance “N-terminal bromodomain of human BRD4 (residues 44–168) (from UniProt O60885 44-168)”, the Kd in assay [1] and in assay [2] was above 500 µM each time.

The Kd is the concentration at which binding is half-saturated. Low values mean higher affinity, high ones lower affinity.

Values taken from article PMC10352329.
